Consider 39 molecules from PubChem BioAssay (EPA / NIEHS).

SMILES strings stand for the structures. The entries are a selection whose mix differs from that of the whole data set. Calls of active or inactive are those of the source. The calls were made as follows: active = hit-call score of the fitted dose curve at least 0.9, where 1 is the maximum; inactive = score below 0.9.

This assay is described as follows: ATG_PPRE_CIS: Attagene CIS-FACTORIAL HepG2 Assay for human Peroxisome Proliferator-activated Response Element (PPRE) (AID 2282958). Particulars: HepG2 PPRE cis-element reporter, Attagene transcription factor profiling; actives raise or lower the signal.
For the molecule `Cc1ccc(C(C)(C)C)c(O)c1`, the outcome was inactive. The same measure, in the same setting: the result for `O=CCc1ccccc1` reads “inactive”.

For `CC(C)c1ccc(C(C)C)cc1`, the result was inactive. Take `C=C(C)C(=O)Nc1ccc(Cl)c(Cl)c1`: the call was inactive. Still for that read-out and setting: as for `CC(=O)c1ccccc1O`, the entry is “inactive”; as for `CC(CN1c2ccccc2Sc2ccccc21)N(C)C` (centres undefined), “inactive”; as for `O=P(O)(O)Oc1ccccc1`, “inactive”.

Turning to `CCCCCCCCN(C)C`, the molecule was classed as inactive. On the same count and under the same terms, as for `O=C(O)COCC(=O)O`, the entry is “inactive”; as for `CCCN(CCC)C(=O)SCC`, “inactive”.

The AC50 is the concentration at which the activity in the assay is half-maximal. For the molecule `COc1cc(C(C)C)c2c(c1)S(=O)(=O)N(COc1cc(=O)n3cccc(OCCN4CCCCC4)c3n1)C2=O`, the AC50 was active: 4.62 µM. Take `OC[C@H]1O[C@@H]2O[C@H]3[C@H](O)[C@@H](O)[C@@H](O[C@H]4[C@H](O)[C@@H](O)[C@@H](O[C@H]5[C@H](O)[C@@H](O)[C@@H](O[C@H]6[C@H](O)[C@@H](O)[C@@H](O[C@H]7[C@H](O)[C@@H](O)[C@@H](O[C@H]8[C@H](O)[C@@H](O)[C@@H](O[C@H]9[C@H](O)[C@@H](O)[C@@H](O[C@H]1[C@H](O)[C@H]2O)O[C@@H]9CO)O[C@@H]8CO)O[C@@H]7CO)O[C@@H]6CO)O[C@@H]5CO)O[C@@H]4CO)O[C@@H]3CO`: the call was inactive. On the same count and under the same terms, the result for `O=[N+]([O-])c1cc(C(F)(F)F)ccc1Cl` reads “inactive”. Same read-out and setting: as for `O=C(O)C1CCC(C(=O)O)CC1` (centres undefined), the entry is “inactive”.

Turning to `Cc1cccnc1`, the molecule was classed as inactive. Still for that read-out and setting: as for `N#[N+]c1ccc2c(S(=O)(=O)[O-])cccc2c1O`, the entry is “inactive”; as for `c1ccc(Cc2ccccc2)cc1`, “inactive”. Still for that read-out and setting: as for `CSc1c(Cl)c(Cl)c(Cl)c(Cl)c1Cl`, the entry is “inactive”; as for `c1ccc(CN(Cc2ccccc2)Cc2ccccc2)cc1`, “inactive”. Same read-out and setting: the result for `CC(C)(C)c1ccc(OC(=O)c2ccccc2O)cc1` reads “inactive”. For `CC(C)c1ccc2cc(C(C)C)ccc2c1`, the AC50 is active: 73.3 µM.

For the molecule `C=C(C)OC(C)=O`, the molecule was called inactive. The same measure, in the same setting: as for `CCCCNS(=O)(=O)c1ccccc1`, the entry is “inactive”; as for `OC[C@@H](O)[C@@H](O)[C@H](O)[C@H](O)CO`, “inactive”; as for `CCCCCCCCCCCC(=O)OCC(O)CO` (centres undefined), “inactive”. As for `CC1CCC2CC1C2(C)C` (centres undefined), the molecule was called inactive. The same measure, in the same setting: the result for `c1cc(N(CC2CO2)CC2CO2)ccc1OCC1CO1` (centres undefined) reads “inactive”. Take `O=C(O)CC(O)C(=O)O` (centres undefined): the molecule was called inactive. As to `NS(=O)(=O)c1cc2c(cc1Cl)NCNS2(=O)=O`, the AC50 is active: 2.9 µM.

With `O=C(OCc1ccccc1)c1ccc(O)cc1`, the AC50 is active: 42.5 µM.

As to `Oc1ccc(C(c2ccc(O)cc2)C(Cl)(Cl)Cl)cc1`, the call was inactive. Still for that read-out and setting: the result for `CC(=O)O[C@@H]1CC2CCC1(C)C2(C)C` (some centres undefined) reads “inactive”. Still for that read-out and setting: the result for `C=C(C)C(N)=O` reads “inactive”; that for `COc1ccc(C(C)=O)cc1`, “inactive”; that for `CC1=C(CC=O)C(C)(C)CCC1`, “inactive”. On the same count and under the same terms, as for `CCCCNC(=S)NCCCC`, the entry is “inactive”; as for `CCCC(CC)c1ccccc1` (centres undefined), “inactive”. For the molecule `OC[C@H]1O[C@@H]2O[C@H]3[C@H](O)[C@@H](O)[C@@H](O[C@H]4[C@H](O)[C@@H](O)[C@@H](O[C@H]5[C@H](O)[C@@H](O)[C@@H](O[C@H]6[C@H](O)[C@@H](O)[C@@H](O[C@H]7[C@H](O)[C@@H](O)[C@@H](O[C@H]1[C@H](O)[C@H]2O)O[C@@H]7CO)O[C@@H]6CO)O[C@@H]5CO)O[C@@H]4CO)O[C@@H]3CO`, the outcome was inactive. On the same count and under the same terms, as for `CN(c1nccc(=O)[nH]1)C1CCN(c2nc3ccccc3n2Cc2ccc(F)cc2)CC1`, the entry is “inactive”.
